Experimental data taken from US20030007968A1, “Methods of inducing organ transplant tolerance and correcting hemoglobinopathies” (priority 2001, published 2003).

How the values were obtained:
[1] = test system: CD80-mediated and CD86-mediated cellular responses; conditions: cited from earlier work
[2] = test system: CD86-mediated costimulation of T cells; assay: Proliferation of CD4-positive T cells stimulated with PMA plus CD86-positive CHO cells; type: cell-based, human; conditions: [3H]thymidine, 72 hour culture
Experimental: (§1) Human CD4-positive T cells were isolated by immunomagnetic negative selection (Linsley et al., (1992) J. Ex . Med. 176:1595-1604). Isolated CD4-positive T cells were stimulated with phorbal myristate acetate (PMA) plus CD80-positive or CD86-positive CHO cells in the presence of titrating concentrations of inhibitor. CD4-positive T cells (8-10×10^4/well) were cultured in the presence of 1 nM PMA with or without irradiated CHO cell stimulators. Proliferative responses were measured by the addition of 1 μCi/well of [3H]thymidine during the final 7 hours of a 72 hour culture.

[3] = test system: CD80-mediated costimulation of T cells; assay: Proliferation of CD4-positive T cells stimulated with PMA plus CD80-positive CHO cells; type: cell-based, human; conditions: [3H]thymidine, 72 hour culture
Experimental: as §1

[4] = test system: phytohemaglutinin-(PHA) stimulated monkey T cells; assay: Monkey mixed lymphocyte response with PHA; type: cell-based; conditions: PBMC from 2 monkeys, 2 μg/ml PHA, 3 days
Experimental: Peripheral blood mononuclear cells (PBMC'S; 3.5×10^4 cells/well from each monkey) from 2 monkeys were purified over lymphocyte separation medium (LSM) and mixed with 2 μg/ml phytohemaglutinin (PHA). The cells were stimulated 3 days then pulsed with radiolabel 16 hours before harvesting.

[5] = test system: allostimulated human T cells; assay: Cytokine production (ELISA) after secondary allostimulation; type: cell-based; conditions: secondary allogeneic stimulus, 3 days
Experimental: (§2) Secondary allostimulation was performed as follows. Seven day primary allostimulated T cells were harvested over lymphocyte separation medium (LSM) (ICN, Aurora, OH) and rested for 24 hours. […] Stimulation occurred for 3 days, then the cells were pulsed with radiolabel and harvested as above.
To measure cytokine production (FIG. 26), duplicate secondary allostimulation plates were set up. After 3 days, culture media was assayed using ELISA kits (Biosource, Camarillo, Calif.) using conditions recommended by the manufacturer.

[6] = test system: allostimulated human T cells; assay: Primary and secondary allostimulation of T cells with PM B lymphoblastoid cell line; type: cell-based
Experimental: Primary allostimulation occurred for 6 days, then the cells were pulsed with ^3H-thymidine for 7 hours, before incorporation of radiolabel was determined.
as §2

## CTLA4Ig: soluble fusion protein comprising an extracellular domain of wildtype CTLA4 joined to an Ig tail (ATCC 68629)
[1]
  lower concentration required for inhibition of CD80-mediated than CD86-mediated cellular responses: approximately 100 fold

## L104EA29YIg: soluble CTLA4 mutant fusion protein with amino acid changes A29Y and L104E joined to an Ig tail (ATCC PTA-2104)
[2]
  inhibition of proliferation, PMA plus CD86-positive CHO: more effective than CTLA4Ig
[3]
  inhibition of proliferation, PMA plus CD80-positive CHO: more than CTLA4Ig
[4]
  inhibition of monkey T cell proliferation: better than CTLA4Ig
[5]
  blocking T cell IL-2 production: more potent than CTLA4Ig
  blocking T cell IL-4 production: more potent than CTLA4Ig
  blocking T cell γ-IFN production: more potent than CTLA4Ig
[6]; primary allostimulation 6 days
  inhibition of primary T cell proliferative response: better than CTLA4Ig
[6]; secondary allostimulation 3 days
  inhibition of secondary T cell proliferative response: better than CTLA4Ig
